Test results: patent US12616711B2, “Therapeutic dendrimer” (Starpharma Pty Ltd, priority 2019, dated 2026)

Tests used:
[1] = Gemcitabine release from dendrimers in citrate buffer; type: physicochemical; settings: Citrate Buffer pH 4.5, 37° C.
Experimental: (§1) A study was carried out to determine the rate of gemcitabine release from dendrimer compounds in PBS and citrate buffer. Gemcitabine-conjugated dendrimers of the present disclosure, and a comparative example dendrimer, were each dissolved in PBS Buffer (2 mL, 10 mM, pH 7.4) or Citrate Buffer (2 mL, 0.1 M, pH 4.5) and held at 37° C. Samples were then analysed by injecting 5 μL of the solution on HPLC. At various time points, samples were analysed by HPLC. HPLC (C8 XBridge, 3×100 mm), gradient: 5% ACN/H2O (0-1 min), 5-80% ACN (1-7 min), 80% ACN (7-12 min), 80-5% ACN (12-13 min), 5% ACN (13-15 min), 243 nm, 10 mM ammonium formate buffer, 0.4 mL/min.

[2] = Gemcitabine release from dendrimers in PBS; type: physicochemical; settings: PBS pH 7.4, 37° C.
Experimental: as §1

Row | Substance | % Gemcitabine released in citrate buffer ([1]; 0 h) [%] | % Gemcitabine released in citrate buffer ([1]; 0.08 h) [%] | % Gemcitabine released in citrate buffer ([1]; 2 h) [%] | % Gemcitabine released in citrate buffer ([1]; 4 h) [%] | % Gemcitabine released in citrate buffer ([1]; 6 h) [%] | % Gemcitabine released in citrate buffer ([1]; 8 h) [%] | % Gemcitabine released in citrate buffer ([1]; 10 h) [%] | % Gemcitabine released in citrate buffer ([1]; 12 h) [%] | % Gemcitabine released in citrate buffer ([1]; 24 h) [%] | % Gemcitabine released in citrate buffer ([1]; 26 h) [%] | % Gemcitabine released in citrate buffer ([1]; 28 h) [%] | % Gemcitabine released in citrate buffer ([1]; 30 h) [%] | % Gemcitabine released in citrate buffer ([1]; 32 h) [%] | % Gemcitabine released in citrate buffer ([1]; 34 h) [%] | % Gemcitabine released in citrate buffer ([1]; 36 h) [%] | % Gemcitabine released in PBS ([2]; 0 h) [%] | % Gemcitabine released in PBS ([2]; 0.08 h) [%] | % Gemcitabine released in PBS ([2]; 2 h) [%] | % Gemcitabine released in PBS ([2]; 4 h) [%] | % Gemcitabine released in PBS ([2]; 6 h) [%] | other results
1 | [BHA Lys][Lys]30[Lys]32 [Compound 6, [BHA Lys][Lys]30[Lys]32 [(α-NH-DGA-Gemcitabine)32 (ε-NHPEG˜2100)32]] | 0 | 4.27 | 5.33 | 5.93 | 6.87 | 7.28 | 8.3 | 9.11 | 13.16 | 13.13 | 13.76 | 14.68 | 15.01 | 15.65 | 16.46 | 0 | 4.06 | 22.07 | 35.48 | 44.46 | % Gemcitabine released in PBS ([2]; 8 h): 51.97%; % Gemcitabine released in PBS ([2]; 10 h): 58.3%; % Gemcitabine released in PBS ([2]; 12 h): 63.5%; % Gemcitabine released in PBS ([2]; 24 h): 80.11%; % Gemcitabine released in PBS ([2]; 26 h): 81.61%; % Gemcitabine released in PBS ([2]; 28 h): 83.04%; % Gemcitabine released in PBS ([2]; 30 h): 84.51%; % Gemcitabine released in PBS ([2]; 32 h): 84.76%; % Gemcitabine released in PBS ([2]; 34 h): 86.95%; % Gemcitabine released in PBS ([2]; 36 h): 87.28%
2 | [BHA Lys][Lys]30[Lys]32 [Compound 8, [BHA Lys][Lys]30[Lys]32 [(α-NH-Glu-Gemcitabine)32 (ε-NHPEG˜2100)32]] | 0 | 5.93 | 6.14 | 5.36 | 5.38 | 5.71 | 5.43 | 5.79 | 6.65 | 6.49 | 6.95 | 6.18 | 6.29 | 6.17 | 6.28 | 0 | 7.04 | 7.83 | 8.09 | 8.05 | % Gemcitabine released in PBS ([2]; 8 h): 8.29%; % Gemcitabine released in PBS ([2]; 10 h): 8.79%; % Gemcitabine released in PBS ([2]; 12 h): 9.08%; % Gemcitabine released in PBS ([2]; 24 h): 12.43%; % Gemcitabine released in PBS ([2]; 26 h): 12.68%; % Gemcitabine released in PBS ([2]; 28 h): 13.47%; % Gemcitabine released in PBS ([2]; 30 h): 13.11%; % Gemcitabine released in PBS ([2]; 32 h): 14.12%; % Gemcitabine released in PBS ([2]; 34 h): 14.34%; % Gemcitabine released in PBS ([2]; 36 h): 15.01%
